Test results: BindingDB's records for patent US9809545 (Merck Sharp & Dohme Corp, 2017)

The chains behind the UniProt entries cited, without tags or fusion partners. Residues count along the entry.
UniProt P03951, 19-387 limits assumed: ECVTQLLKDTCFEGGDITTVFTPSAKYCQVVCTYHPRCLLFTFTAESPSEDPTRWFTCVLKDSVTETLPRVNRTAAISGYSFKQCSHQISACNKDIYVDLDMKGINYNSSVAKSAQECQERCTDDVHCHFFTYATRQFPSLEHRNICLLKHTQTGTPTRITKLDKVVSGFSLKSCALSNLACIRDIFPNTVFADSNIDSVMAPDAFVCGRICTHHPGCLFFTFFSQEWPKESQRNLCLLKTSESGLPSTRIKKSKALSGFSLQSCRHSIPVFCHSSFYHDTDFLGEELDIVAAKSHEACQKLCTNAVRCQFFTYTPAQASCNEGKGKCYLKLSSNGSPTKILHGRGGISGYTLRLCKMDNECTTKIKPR
UniProt P03951, 388-625 limits assumed: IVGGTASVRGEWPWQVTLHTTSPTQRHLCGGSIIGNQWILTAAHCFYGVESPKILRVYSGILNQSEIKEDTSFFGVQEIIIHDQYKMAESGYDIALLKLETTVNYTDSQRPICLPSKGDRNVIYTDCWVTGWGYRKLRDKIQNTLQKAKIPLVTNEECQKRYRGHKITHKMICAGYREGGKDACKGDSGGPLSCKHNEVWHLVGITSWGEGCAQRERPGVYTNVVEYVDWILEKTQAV

Molecular target: Coagulation factor XI (Homo sapiens, UniProt P03951)

Compound: O=c1cc(-c2cc(Cl)ccc2-n2cnnn2)ccn1[C@@H](Cc1ccc(F)cc1)c1nnc(-c2ccc(F)cc2)o1 [US9809545, 6h]
- Ki: 240 nM
